Patent publication US6852744B2, “Pyrrolidine derivatives and their use as chymase inhibitor” (Dainippon Pharmaceutical Co., Ltd., priority 2000, dated 2005)

Chains of the proteins cited; added tags and fusions are not shown. Residues count along the entry.
UniProt P56435, 22-247 limits assumed: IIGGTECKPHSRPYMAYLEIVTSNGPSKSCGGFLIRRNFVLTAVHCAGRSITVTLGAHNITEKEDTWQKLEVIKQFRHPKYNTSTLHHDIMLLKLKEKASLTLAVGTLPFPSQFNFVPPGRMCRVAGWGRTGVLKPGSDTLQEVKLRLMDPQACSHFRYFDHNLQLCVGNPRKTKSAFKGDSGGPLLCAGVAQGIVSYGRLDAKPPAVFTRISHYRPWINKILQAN

target: monkey chymase (Macaca fascicularis, UniProt P56435); experiment: Monkey chymase inhibitory activity (in vitro, angiotensin I substrate); details: read-out: Monkey Chymase Inhibition (IC50:nM), chymase purified from monkey cheek pouch and stomach, 37° C.

| SMILES | IC50 [nM] |
| --- | --- |
| CC(=O)c1onc(C)c1C(=O)N[C@H](C(=O)N1CCC[C@H]1C(=O)NC(Cc1ccccc1)C(=O)C(F)(F)F)C(C)C (some centres unmarked) | 76 |
| Cc1onc(-c2c(F)cccc2Cl)c1C(=O)N[C@H](C(=O)N1CCC[C@H]1C(=O)NC(Cc1ccccc1)C(=O)C(F)(F)F)C(C)C (some centres unmarked) | 89 |
| Cc1onc(C(N)=O)c1C(=O)N[C@H](C(=O)N1CCC[C@H]1C(=O)NC(Cc1ccccc1)C(=O)C(F)(F)F)C(C)C (some centres unmarked) | 68 |
| Cc1onc(-c2c(Cl)cccc2Cl)c1C(=O)N[C@H](C(=O)N1CCC[C@H]1C(=O)NC(Cc1ccccc1)C(=O)C(F)(F)F)C(C)C (some centres unmarked) | 170 |
| Cc1onc(-c2ccccc2Cl)c1C(=O)N[C@H](C(=O)N1CCC[C@H]1C(=O)NC(Cc1ccccc1)C(=O)C(F)(F)F)C(C)C (some centres unmarked) | 120 |
| CCc1noc(C)c1C(=O)N[C@H](C(=O)N1CCC[C@H]1C(=O)NC(Cc1ccccc1)C(=O)C(F)(F)F)C(C)C (some centres unmarked) | 150 |
| Cc1onc(-c2ccccc2)c1C(=O)N[C@H](C(=O)N1CCC[C@H]1C(=O)NC(Cc1ccccc1)C(=O)C(F)(F)F)C(C)C (some centres unmarked) | 73 |
| Cc1noc(-c2ccc(C(F)(F)F)cc2)c1C(=O)N[C@H](C(=O)N1CCC[C@H]1C(=O)NC(Cc1ccccc1)C(=O)C(F)(F)F)C(C)C (some centres unmarked) | 350 |
